Laboratory results: paper PMC9290681 (British Journal of Pharmacology, 2020)

Sequences of proteins named here, by UniProt entry; tags and fusion partners are left off.
UniProt P35372, whole entry: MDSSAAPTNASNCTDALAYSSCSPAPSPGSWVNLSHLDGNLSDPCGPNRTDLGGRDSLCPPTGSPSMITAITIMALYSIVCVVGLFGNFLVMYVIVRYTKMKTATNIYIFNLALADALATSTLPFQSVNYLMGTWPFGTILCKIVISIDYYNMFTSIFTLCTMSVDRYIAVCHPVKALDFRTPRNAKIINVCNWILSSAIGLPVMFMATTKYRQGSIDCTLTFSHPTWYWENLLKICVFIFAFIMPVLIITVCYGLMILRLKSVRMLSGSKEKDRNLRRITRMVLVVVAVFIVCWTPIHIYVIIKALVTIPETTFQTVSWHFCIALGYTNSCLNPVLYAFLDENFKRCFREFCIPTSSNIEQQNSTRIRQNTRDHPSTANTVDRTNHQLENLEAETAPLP

Biological target: μ opioid receptor co-transfected with TRPM3α1 (Homo sapiens, UniProt P35372)
Type: cell-based
Settings: DAMGO 1 μM, ±80 mV

Substance: [D‐Ala2, N‐Me‐Phe4, Gly5‐ol]‐Enkephalin acetate salt [DAMGO]
- inhibition of clotrimazole-induced currents (Clt 10 μM): only partially inhibited
- inhibition of CIM0216-induced currents: complete and rapidly reversible inhibition
